## Yeast mating assay 1: variants of the scFv Ab-14

Reference: Engelhart et al. 2022, doi:10.1038/s41597-022-01779-4. File: FLAb, binding data.

Antigen: PDVDLGDISGINAS, a 14-residue peptide of the SARS-CoV-2 spike HR2 region.

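The starting antibody came from a phage panning campaign against this peptide. AAYL49 was designed without a model: most single CDR substitutions and a random sample of double and triple ones. The assay is AlphaSeq: two haploid yeast populations carry antibody and antigen on their surface. After mating in shaken culture at 30 °C for 16 h, diploids were selected and their barcode pairs sequenced. Scores were corrected for input abundance and mapped to Kd with protein pairs of known affinity run in the same pool. The assay was run in three technical replicates.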

Parent scFv Ab-14: VH joined to VL by three GGGGS repeats. Changes lie in the heavy chain CDRs alone.
VH: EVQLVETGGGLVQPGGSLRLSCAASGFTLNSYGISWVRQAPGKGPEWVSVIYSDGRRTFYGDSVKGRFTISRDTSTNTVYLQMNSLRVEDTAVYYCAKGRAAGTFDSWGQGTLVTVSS
VL: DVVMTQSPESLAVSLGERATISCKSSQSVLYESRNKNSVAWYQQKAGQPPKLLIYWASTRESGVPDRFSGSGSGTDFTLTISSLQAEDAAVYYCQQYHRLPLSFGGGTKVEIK

Variants are written as CDR1, CDR2 and CDR3 of the heavy chain (limits as in the source). Parent: GFTLNSYGIS, VIYSDGRRTFYGDSVK, GRAAGTFDS.
Values are apparent Kd, the geometric mean of the replicates that gave a signal; lower means stronger binding.
"not detected" marks a missing value. The strain was present, yet no cells mated with the target were sequenced in any replicate, which points to weak or no binding.
Order: sorted from the lowest average up, undetected variants last.
Parent in this assay: reference entry 4.4 nM, copy in this library 13 µM (one replicate of three).
Nonspecific signal, from three strains lacking the peptide, appeared in 15% of pairings of library AAYL49, centred on 11 µM (5% of these signals below 680 nM); values are not corrected for it.

CDR-H1	CDR-H2	CDR-H3	apparent Kd	detected
GFTLNSYGIS	VIYSDGRRTGYKDSVK	GRAAGNFDS	5.8 nM	3 of 3
GFTLNSYGIS	VIYSDGRRTFYGDAVL	GEAAGTFDS	7.6 nM	3 of 3
GFTLNSYGIS	VIYSDGTRTFYGDSVK	GRAANTFDS	12 nM	3 of 3
GNTLNSYGIS	VIYSDGRRTHYSDSVK	GRAAGTFDS	21 nM	3 of 3
GETLNSMGIW	VIYSDGRRTFYGDSVK	GRAAGTFDS	52 nM	3 of 3
GFTLNSYGIS	VIYSDGRRTFYGDSTC	GRVAGTFDS	54 nM	3 of 3
GFTLNSYGIS	VIYSDGRRTMYGASVK	GRAAGTFDQ	55 nM	3 of 3
GFPINSYGIS	VIYSDGRRTFYGDSVS	GRAAGTFDS	64 nM	3 of 3
GFTLNSYGIS	VIYSDKRRTFYGDSVK	GLAAGTFTS	220 nM	1 of 3
GFTLNSYGIS	VIYGDGRRLYYGDSVK	GRAAGTFDS	230 nM	3 of 3
GFTLNSYGIS	VIYSDGWRTFYGDSVK	GIAAGTFDW	240 nM	3 of 3
GFTLPSYGIS	VIYSDGRRTFFGDSVK	GRNAGTFDS	590 nM	3 of 3
GFTLNSYGIS	VIYSDGRRTFERDSDK	GRAAGTFDS	740 nM	1 of 3
GFTLNSYGIR	VIYSDGRRTFYGDSVA	GQAAGTFDS	910 nM	2 of 3
GFTLNSYGID	VIYSDGRRTFYGDSVK	GRAFGTFDS	980 nM	1 of 3
GFSLNSYGIS	VIYSDGRYTFYGDSVK	GRAAGTFDS	1.4 µM	3 of 3
GFTLNSYKIS	HIYPDGRRTFYGDSVK	GRAAGTFDS	1.9 µM	1 of 3
GFTLNSYGIS	HIYSDGRRTFYSDSVK	GNAAGTFDS	1.9 µM	1 of 3
GFTLNSYGIS	VIYSDRRRTFYGDVEK	GRAAGTFDS	2.9 µM	1 of 3
VFTLNSYGIS	VIYSDGRRTFYGDDVL	GRAAGTFDS	3.1 µM	2 of 3
GNTLNSYGIS	VIYSNGRRTFYADSVK	GRAAGTFDS	4.7 µM	3 of 3
GFTLNSYGIS	MIPSDGRRTFYGDSVK	GREAGTFDS	4.9 µM	1 of 3
GFTLNSYGES	VIYSDGRPTFYGDSVK	GRAAGTFYS	5.6 µM	1 of 3
GGTWNSYGIS	VIYSDGRRTFYGDSVK	GIAAGTFDS	6.7 µM	1 of 3
GFTLNSYGIE	VITSDGRRTFYGDSVK	GRAALTFDS	7.5 µM	1 of 3
GFTLNSYGIS	VIYSDVRRTFYGDRVK	GRAAGTFDI	8.3 µM	1 of 3
GFTLNSYDIS	VIYSDGRRTFDGDPVK	GRAAGTFDS	8.4 µM	3 of 3
GFTLNSYGIS	VIYSDGRRCFYGDSVL	GRATGTFDS	9.8 µM	3 of 3
GFTLNSYGIS	TIYSDGRRTFSGDSVK	DRAAGTFDS	12 µM	1 of 3
GYALNSYGIS	VIYSDGRRCFYGDSVK	GRAAGTFDS	13 µM	1 of 3
GFTLNSNSIS	VIYSDGRRTFYGDSVK	GRAAGNFDS	13 µM	2 of 3
GFTLNSAGIS	VIYSDFRRTFYGDSVK	GRAAATFDS	15 µM	3 of 3
GFTLNSYGIP	VVYSDGRRWFYGDSVK	GRAAGTFDS	16 µM	1 of 3
PFTLNSYGVS	VIYSDGRRTFYGDSVK	GRAAGTFDS	16 µM	3 of 3
GFTLNSYGIQ	VIYSDGRRTFYGDSVK	GRAASSFDS	17 µM	2 of 3
GFTPNSYGIS	VINSDGRRTFYGDSVK	GRAAGTFMS	19 µM	2 of 3
GFTLNSYGIS	DIYSDMRRTFYGDSVK	GRAAGTFDP	19 µM	1 of 3
GLTLNSGGIS	VIYSDGRRTFYGDLVK	GRAAGTFDS	22 µM	3 of 3
GFTLNSYGIS	VIYSDGRRTFYGDSKF	GRAAGDFDS	26 µM	1 of 3
GFTLNSYGIS	VIYSDGRRNFYGDSVK	GEAEGTFDS	31 µM	1 of 3
GFTLNSYGIS	VIYSDGRPTFHGDSVY	GRAAGTFDS	52 µM	1 of 3
GFWLNSYGIS	IIYSDGRRTFYGWSVK	GRAAGTFDS	85 µM	1 of 3
GFTLNSYGIS	VIYSDGRWTFYGFSVK	GRFAGTFDS	160 µM	1 of 3
IFTLNSYGIM	VIYSDGRRTFYGDSVK	GRAAGTFGS	440 µM	1 of 3
GFRLNSYGIS	VIYSDGRRTFYGDSVK	QRAAGQFDS	not detected	0 of 3
GFTLNSYGIM	VIYSDGRRTFYGDSVK	GRAAGYFDS	not detected	0 of 3
GFTYNSYGIS	VIYSDGRRTFYGDSWG	GRAAGTFDS	not detected	0 of 3
GFTLNSFGWS	VIRSDGRRTFYGDSVK	GRAAGTFDS	not detected	0 of 3
GFTLNSYGIS	VIYSDTRRTFYGDSNL	GRAAGTFDS	not detected	0 of 3
GFTLNSYGIS	PICSDGRRTFYGDSVK	GVAAGTFDS	not detected	0 of 3
GFELNSYGIS	VIYSDPRRTHYGDSVK	GRAAGTFDS	not detected	0 of 3
GFTLNSYGIS	VIYSEGRRTFYGMSVK	GRAAGTFDS	not detected	0 of 3
GFTLNSYGIS	VINSDGRFTFYGDSVG	GRAAGTFDS	not detected	0 of 3
GFTGNSYGLS	VNYSDGRRTFYGDSVK	GRAAGTFDS	not detected	0 of 3
GFTLNSYGPS	VIYSDGRVTFYGDSVK	GRAAGTFPS	not detected	0 of 3
GFTINSYGIS	VIFSMGRRTFYGDSVK	GRAAGTFDS	not detected	0 of 3
GFTLNSYQIS	VIYSCGRRTEYGDSVK	GRAAGTFDS	not detected	0 of 3
NFTLNYYGIS	VIYSDGRRTFYGDSVK	GRAARTFDS	not detected	0 of 3
PFTLNSYGIS	VIYSCGWRTFYGDSVK	GRAAGTFDS	not detected	0 of 3
GFTLNSSGIS	YIYSDGRRTFYGRSVK	GRAAGTFDS	not detected	0 of 3
GQWLNSYGIS	VHYSDGRRTFYGDSVK	GRAAGTFDS	not detected	0 of 3
GFTLNSAGIS	VIYSDGRRTFYGGSVK	GQAAGTFDS	not detected	0 of 3
GFTLNSYGIS	VNYSDGRRTFYGDSVK	GRAAGVFDM	not detected	0 of 3
GFTLNSYGIS	VIYSDGRRTFYGDSTK	GRATGTSDS	not detected	0 of 3
GFTLNSYGIS	VIYSDGRRTFYGDSNK	GMAAGTFDG	not detected	0 of 3
GFTLNSYGYS	VIYSVGRRTFYGKSVK	GRAAGTFDS	not detected	0 of 3
GFTLNSYAIS	VIYSDGRRTFYGISVK	GREAGTFDS	not detected	0 of 3

The first 6 entries again:

CDR-H1	CDR-H2	CDR-H3	apparent Kd	detected
GFTLNSYGIS	VIYSDGRRTGYKDSVK	GRAAGNFDS	5.8 nM	3 of 3
GFTLNSYGIS	VIYSDGRRTFYGDAVL	GEAAGTFDS	7.6 nM	3 of 3
GFTLNSYGIS	VIYSDGTRTFYGDSVK	GRAANTFDS	12 nM	3 of 3
GNTLNSYGIS	VIYSDGRRTHYSDSVK	GRAAGTFDS	21 nM	3 of 3
GETLNSMGIW	VIYSDGRRTFYGDSVK	GRAAGTFDS	52 nM	3 of 3
GFTLNSYGIS	VIYSDGRRTFYGDSTC	GRVAGTFDS	54 nM	3 of 3